From patent US8309534B2, “Compositions comprising a GPR109 ligand for treating disorders of the digestive tract and/or cancer” (Medical College of Georgia Research Institute, Inc., priority 2007, dated 2012)

System: KM12L4 cells transfected with GPR109A cDNA
Conditions: 0.5 mM, 24 h

## O=C(O)c1cccnc1 [nicotinate, nicotinic acid]
  change in expression of genes involved in apoptosis and cell cycle: causes marked effects on the expression of various genes
